{"sequences": {"note": "Amino acid sequences for entries named in this document (tags omitted). A change or cut given only in a name is not applied to a line headed by its entry.", "UniProt P19838": "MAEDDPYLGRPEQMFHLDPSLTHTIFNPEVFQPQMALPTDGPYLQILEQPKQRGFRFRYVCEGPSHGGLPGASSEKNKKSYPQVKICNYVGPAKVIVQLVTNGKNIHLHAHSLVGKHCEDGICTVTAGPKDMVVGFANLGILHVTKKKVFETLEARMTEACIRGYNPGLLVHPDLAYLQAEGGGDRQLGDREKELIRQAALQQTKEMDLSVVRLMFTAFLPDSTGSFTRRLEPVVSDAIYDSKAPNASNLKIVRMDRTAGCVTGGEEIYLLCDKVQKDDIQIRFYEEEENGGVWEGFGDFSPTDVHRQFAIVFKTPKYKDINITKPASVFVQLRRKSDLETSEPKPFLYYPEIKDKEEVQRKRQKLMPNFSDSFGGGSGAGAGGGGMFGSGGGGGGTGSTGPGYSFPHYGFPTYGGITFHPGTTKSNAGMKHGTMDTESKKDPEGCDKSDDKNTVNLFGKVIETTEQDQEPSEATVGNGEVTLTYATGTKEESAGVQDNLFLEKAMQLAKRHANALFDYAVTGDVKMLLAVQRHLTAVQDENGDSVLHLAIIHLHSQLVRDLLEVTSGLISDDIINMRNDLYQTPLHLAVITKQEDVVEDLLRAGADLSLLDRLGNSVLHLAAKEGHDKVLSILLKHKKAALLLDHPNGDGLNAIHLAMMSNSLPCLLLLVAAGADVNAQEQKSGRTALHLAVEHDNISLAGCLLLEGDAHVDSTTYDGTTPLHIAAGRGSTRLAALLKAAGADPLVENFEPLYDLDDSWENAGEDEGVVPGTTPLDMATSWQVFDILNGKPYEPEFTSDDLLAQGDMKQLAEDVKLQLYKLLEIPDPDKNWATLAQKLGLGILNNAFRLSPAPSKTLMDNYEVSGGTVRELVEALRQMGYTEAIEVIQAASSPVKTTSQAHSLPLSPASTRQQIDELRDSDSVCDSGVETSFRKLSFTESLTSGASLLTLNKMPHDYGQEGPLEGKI"}, "source": "PubChem BioAssay AID624139", "about": "(Broad Institute, 2012)", "note": "The list shows a part of the results, in another mix than the full data. The source made the active and inactive calls.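 Rule for the calls: active = spot fluorescence over background significantly raised, with a chance value under 7% in all four replicate spots of the compound; inactive = the rest.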", "data": [{"molecular_target": "Nuclear factor NF-kappa-B p105 subunit (Homo sapiens) (UniProt P19838)", "test": "small molecules binding NF-kappa-B p105/p50 – biochemical, small molecule microarray, anti-His fluorescence, primary screen (AID 624139);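 note: probe protein is his-tagged human p50 processed subunit at 1 µg/ml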", "values": [{"smiles": "COc1ccc(CN2/C(=N\\P(=O)(Oc3ccccc3)Oc3ccccc3)Cc3ccccc3C2C2CC2)cc1", "note": "(centres undefined)", "outcome": "inactive"}, {"smiles": "COc1ccc(CN2/C(=N/P(=O)(Oc3ccccc3)Oc3ccccc3)CC(C)=CC2C)cc1", "note": "(centres undefined)", "outcome": "inactive"}, {"smiles": "CN(C(=O)Cc1ccc(Cl)c(Cl)c1)C1CCCCC1N1CCCC1", "note": "(centres undefined)", "outcome": "inactive"}, {"smiles": "C=CC1C=C(C)C/C(=N\\P(=O)(Oc2ccccc2)Oc2ccccc2)N1Cc1ccc(OC)cc1", "note": "(centres undefined)", "outcome": "inactive"}]}]}
